The values that follow are results of earlier work, collected in patent US12211592B2.

Protein sequences, listed by entry. Tags and fused reporters are not part of them.
UniProt P50750, whole entry: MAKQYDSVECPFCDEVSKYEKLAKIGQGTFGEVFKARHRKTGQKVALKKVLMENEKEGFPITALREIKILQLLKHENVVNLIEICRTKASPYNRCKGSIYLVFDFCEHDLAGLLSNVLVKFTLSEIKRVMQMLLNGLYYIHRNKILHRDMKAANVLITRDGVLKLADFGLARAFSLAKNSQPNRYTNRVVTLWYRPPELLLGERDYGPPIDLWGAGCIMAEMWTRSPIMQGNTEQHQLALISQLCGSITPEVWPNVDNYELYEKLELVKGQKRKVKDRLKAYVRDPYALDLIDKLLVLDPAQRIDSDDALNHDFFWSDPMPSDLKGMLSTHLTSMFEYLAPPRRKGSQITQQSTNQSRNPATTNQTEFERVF
UniProt O60563, whole entry partner: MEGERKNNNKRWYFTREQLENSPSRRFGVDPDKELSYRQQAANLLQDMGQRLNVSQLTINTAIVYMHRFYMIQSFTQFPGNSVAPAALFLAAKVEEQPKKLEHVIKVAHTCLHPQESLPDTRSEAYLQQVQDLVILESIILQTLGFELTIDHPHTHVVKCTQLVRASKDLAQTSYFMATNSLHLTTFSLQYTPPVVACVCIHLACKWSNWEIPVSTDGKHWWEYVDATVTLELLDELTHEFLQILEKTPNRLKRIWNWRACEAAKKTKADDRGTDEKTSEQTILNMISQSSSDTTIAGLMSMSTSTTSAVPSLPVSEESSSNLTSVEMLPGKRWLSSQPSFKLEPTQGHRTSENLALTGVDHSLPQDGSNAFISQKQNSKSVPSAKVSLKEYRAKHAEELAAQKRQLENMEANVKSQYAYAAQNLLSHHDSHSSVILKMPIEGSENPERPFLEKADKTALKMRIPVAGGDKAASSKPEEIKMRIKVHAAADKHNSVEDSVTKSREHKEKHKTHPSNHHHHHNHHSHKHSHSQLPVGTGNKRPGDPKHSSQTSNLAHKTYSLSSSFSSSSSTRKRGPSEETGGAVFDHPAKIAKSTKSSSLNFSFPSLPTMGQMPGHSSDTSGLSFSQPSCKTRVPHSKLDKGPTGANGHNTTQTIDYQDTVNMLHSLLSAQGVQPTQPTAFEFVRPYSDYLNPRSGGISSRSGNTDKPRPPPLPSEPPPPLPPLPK

The target in one data set is CDK9 (Homo sapiens, UniProt P50750). The following applies: qualitative statement.
The conditions of data set [1]: qualitative statement, proven in vivo.

On to `COc1ccccc1-c1cc(Nc2ccccn2)ncn1`, for which, on CDK9, the CDK9 subtype selectivity result was “subtype selective CDK9 inhibitor activity” and the ligand efficiency result is reported as “good ligand efficiency”.
With `CN1CCC(c2c(O)cc(O)c3c(=O)cc(/C=C/c4c(Cl)cccc4Cl)oc23)C(O)C1` (stereo not shown), on CDK9, the CDK9 subtype selectivity result is recorded as “subtype selective CDK9 inhibitor activity”. In data set [1], the oral bioavailability entry is listed as “oral bioavailability”.
